Assay results: patent EP1739083A1, “Benzylidene-1,3-thiazolidine-2,4-dione compounds, uses thereof and compositions for stimulating or inducing the growth and/or for reducing the loss and/or for increasing the density of keratin fibres” (L'Oreal, priority 2005, dated 2007)

Target: T1, 15-PGDH de type 1 (Homo sapiens, UniProt P15428)
T1 construct: made in house
T1 sequence (P15428 1-266): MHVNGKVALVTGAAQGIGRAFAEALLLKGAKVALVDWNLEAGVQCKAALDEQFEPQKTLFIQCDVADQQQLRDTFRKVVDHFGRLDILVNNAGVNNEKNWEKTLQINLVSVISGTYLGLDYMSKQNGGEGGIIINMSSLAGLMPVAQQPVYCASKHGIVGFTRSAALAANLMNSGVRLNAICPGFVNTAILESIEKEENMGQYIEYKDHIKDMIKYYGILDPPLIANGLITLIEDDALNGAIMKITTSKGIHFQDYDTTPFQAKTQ
Assay: Test on 15-PGDH type 1 (spectrophotometric, NADH formation at 340 nm, PGE2 substrate)
Assay type: biochemical
Procedure: L'enzyme 15-PGDH est obtenue comme décrit dans la demande FR 02/05067 déposée au nom de L'Oréal, en suspension dans un milieu adapté à une concentration de 0,3 mg/mL puis bloquée à - 80°C. Pour les besoins du test, cette suspension est décongelée et stockée dans de la glace.
Par ailleurs on prépare un tampon Tris 100 mM, pH = 7,4, contenant 0,1 mM de dithiothréitol (D5545, Sigma-Aldrich, L'isle D'Abeau Chesne, BP 701, 38297, Saint Quentin Fallavier), 1,5 mM de β-NAD (N6522, Sigma-Aldrich, L'isle D'Abeau Chesne, BP 701, 38297, Saint Quentin Fallavier), 50 µM de Prostaglandine E2 (P4172, Sigma-Aldrich, L'isle D'Abeau Chesne, BP 701, 38297, Saint Quentin Fallavier).
Dans la cuve d'un spectrophotomètre (Perkin-Elmer, Lambda 2) thermostaté à 37°C, dont la longueur d'onde de mesure est réglée à 340 nm, sont introduits 0,965 ml de ce tampon (préalablement porté à 37°C). 0,035 mL de suspension enzymatique à 37°C sont introduits dans la cuve concomitamment à l'enregistrement ( correspondant à une augmentation de la densité optique à 340 nm). La vitesse maximale de réaction est relevée.

For `O=C1NC(=O)C(=Cc2ccccc2Oc2ccc(C34CC5CC(CC(C5)C3)C4)cc2)S1` [compound 11, (5Z)-5-[2-[4-(1-adamantylphenoxy)benzylidene]-1,3-thiazolidine-2,4-dione], the IC50 was 1.4 µM.
